Assay results: patent US20040121316A1 (priority 2002, published 2004)

Test system: MT-2 cells
Assay: Cytotoxicity Cell Culture Assay (CC50)
Conditions: read-out: Cytotoxicity CC50, 5 days, XTT

`CCOC(=O)[C@H](C)NP(=O)(COc1ccc(C[C@H](NC(=O)O[C@H]2CO[C@H]3OCC[C@H]32)[C@H](O)CN(CC(C)C)S(=O)(=O)c2ccc(OC)cc2)cc1)N[C@@H](C)C(=O)OCC` was tested, and the CC50 was 60 µM.
